Assay results as given in patent US4769369A, “Anti-allergy 1(2H)-phthalazinones” (Pennwalt Corporation, priority 1986, dated 1988).

System: histamine
Assay: Rat Allergic Mediator Induced Dermal Vascular Permeability Test, histamine challenge
Type: in vivo
Details: 1 mg/kg
Procedure: Ten minutes later, the animals are challenged by intradermally injecting 0.1 ml of a water solution of either serotonin (1 μg/ml), histamine (20 μg/ml) or bradykinin (10 μg/ml) into separate sites on the back. Five minutes following challenge the animals are killed, the skin retracted, and the mean diameter of the blue wheal and flare reaction is calculated as the difference in mean diameter between a saline control and the drug treated group, divided by the control diameter, and then multiplied times 100. Statistical analysis of the data is done using a Student T-test program. […] (Set: Serotonin; His: histamine; Bk: bradykinin)

[1] = Table 4 (ip administration of test compound)
[2] = Table 5 (po administration of test compound)

In the case of CN1CCC(=C2c3ccccc3C=Cc3ccccc32)CC1 [Cyproheptadine, cyproheptadine, reference compound], the “% Inhibition, His” value [1] is reported as 92.9%, the “Wheal Measurement, His” value [1] is reported as 0.8 mm and the “% Inhibition, His” value [2] is reported as 100%. The “Wheal Measurement, His” value [2] was 0 mm.
